Each structure is given as a SMILES string. Where only a bound is given, the exact number is not on record here.

Amino acid sequences for entries named in this document (tags omitted). A change or cut given only in a name is not applied to a line headed by its entry.
UniProt Q12809: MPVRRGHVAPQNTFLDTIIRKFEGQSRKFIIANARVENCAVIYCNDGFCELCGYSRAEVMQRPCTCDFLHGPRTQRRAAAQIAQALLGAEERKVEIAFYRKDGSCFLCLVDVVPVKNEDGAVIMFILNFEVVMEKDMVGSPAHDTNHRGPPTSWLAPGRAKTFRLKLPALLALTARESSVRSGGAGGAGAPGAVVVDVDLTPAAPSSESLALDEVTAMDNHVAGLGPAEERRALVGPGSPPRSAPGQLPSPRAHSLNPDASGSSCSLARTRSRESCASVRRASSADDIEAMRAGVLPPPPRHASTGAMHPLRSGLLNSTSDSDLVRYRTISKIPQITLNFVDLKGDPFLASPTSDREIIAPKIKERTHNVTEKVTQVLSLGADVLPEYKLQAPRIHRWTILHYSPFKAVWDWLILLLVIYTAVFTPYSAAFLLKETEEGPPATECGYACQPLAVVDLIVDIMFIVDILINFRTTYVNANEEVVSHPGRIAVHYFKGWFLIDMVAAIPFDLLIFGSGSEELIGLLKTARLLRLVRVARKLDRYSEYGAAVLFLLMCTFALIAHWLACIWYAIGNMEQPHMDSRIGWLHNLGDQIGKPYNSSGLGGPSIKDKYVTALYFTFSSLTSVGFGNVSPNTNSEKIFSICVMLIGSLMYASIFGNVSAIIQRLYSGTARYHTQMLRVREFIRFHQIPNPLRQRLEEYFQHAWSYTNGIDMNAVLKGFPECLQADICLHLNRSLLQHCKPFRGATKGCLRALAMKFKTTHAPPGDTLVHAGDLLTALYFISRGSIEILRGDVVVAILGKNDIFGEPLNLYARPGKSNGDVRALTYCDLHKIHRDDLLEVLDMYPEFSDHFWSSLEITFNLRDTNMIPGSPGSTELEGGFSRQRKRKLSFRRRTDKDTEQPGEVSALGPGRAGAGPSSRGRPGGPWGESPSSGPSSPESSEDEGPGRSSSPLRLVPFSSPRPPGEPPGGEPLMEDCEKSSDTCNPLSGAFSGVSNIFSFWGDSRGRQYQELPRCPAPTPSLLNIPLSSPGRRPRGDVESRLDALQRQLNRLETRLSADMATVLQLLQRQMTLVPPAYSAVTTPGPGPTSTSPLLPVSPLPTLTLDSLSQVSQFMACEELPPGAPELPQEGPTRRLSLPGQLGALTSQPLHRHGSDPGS

The target of test [1] is Voltage-gated inwardly rectifying potassium channel KCNH2 (Homo sapiens, UniProt Q12809).
For test [2], the system named is Plasmodium falciparum. The test can be described thus: microbe, parasite or virus in culture. Conditions: read-out: INH.
For test [3], the target named is T1, Calmodulin-domain protein kinase 1 (Toxoplasma gondii, UniProt Q9BJF5).
T1 sequence (Q9BJF5 whole entry): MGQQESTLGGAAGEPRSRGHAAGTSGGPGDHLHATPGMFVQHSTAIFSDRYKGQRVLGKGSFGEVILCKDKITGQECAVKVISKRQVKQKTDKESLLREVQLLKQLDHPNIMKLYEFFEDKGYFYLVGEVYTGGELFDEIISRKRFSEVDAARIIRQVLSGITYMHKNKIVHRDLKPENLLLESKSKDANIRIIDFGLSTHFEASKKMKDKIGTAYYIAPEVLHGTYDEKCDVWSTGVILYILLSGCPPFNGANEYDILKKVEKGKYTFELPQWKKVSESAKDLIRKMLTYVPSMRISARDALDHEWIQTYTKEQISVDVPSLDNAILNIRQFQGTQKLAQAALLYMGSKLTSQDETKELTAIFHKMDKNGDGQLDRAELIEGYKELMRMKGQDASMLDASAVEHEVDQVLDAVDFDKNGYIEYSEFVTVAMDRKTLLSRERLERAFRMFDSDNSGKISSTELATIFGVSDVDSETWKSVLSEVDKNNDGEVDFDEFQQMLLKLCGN

Test [4] has as its system Plasmodium falciparum. Description: Inhibition of male gametocytes exflagellation of Plasmodium falciparum at 1 uM relative to control. Format: functional.

In the case of `CCOc1ccc2cc(-c3nn(C4CCCCC4)c(N)c3C(N)=O)ccc2n1`, it took 14.1 µM to reach a half-maximal effect in test [1] (EC50).
As for `CCOc1ccc2cc(-c3nn(C(C)C)c(N)c3C(N)=O)cnc2c1`, the EC50 – broadly, the concentration giving half of the maximal effect – in test [1] came to 18.8 µM. Also, the inhibition at 0.1 µM in test [2] was 80%.
For `CCOc1ccc2cc(-c3nn(CC(C)(C)CO)c(N)c3C(N)=O)cnc2c1`, the EC50 in test [1] was over 30 µM.
In the case of `CCOc1ccc2cc(-c3nn(C4CCCCC4)c(N)c3C(N)=O)cnc2c1`, the midpoint of inhibition in test [3], the IC50, lay at 0.012 µM.
Turning to `CCOc1ccc2cc(-c3nn(C(C)(C)C)c(N)c3C(N)=O)cnc2c1`, the EC50 in test [1] was over 30 µM. The inhibition at 0.1 µM in test [2] turned out to be 89%. The compound also showed an inhibition at 1 µM in test [4] of 87%.
Regarding `COc1ccc2cc(-c3nn(C(C)(C)C)c(N)c3C(N)=O)cnc2c1`, the EC50 in test [1] is over 30 µM. The inhibition at 0.1 µM in test [2] amounted to 73%.
